According to ChEMBL document CHEMBL3259695 (J Med Chem, 2014):

Organism: Rattus norvegicus
Assay: Selectivity ratio of Ki for dopamine D1-like receptor in Sprague-Dawley rat caudate putamen to Ki for dopamine D3 receptor in Sprague-Dawley rat ventral striatum
Assay type: tissue-based

CCCN(CC[C@]1(O)C[C@@H](NC(=O)c2ccc3ccccc3c2)C1)[C@H]1C[C@@H]1c1ccc(Cl)cc1
Ratio Ki: 45

CCCN(CC[C@]1(O)C[C@@H](NC(=O)c2ccc3ccccc3c2)C1)C1CC1c1ccc(Cl)cc1 (mixture of isomers)
Ratio Ki: 479

CCCN(CC[C@]1(O)C[C@@H](NC(=O)c2ccc3ccccc3c2)C1)[C@@H]1C[C@H]1c1ccc(Cl)cc1
Ratio Ki: 9560
